Results on two substances are retold here after patent publication US20110020272A1, “COMBINATION THERAPY FOR TREATING HEPATITIS VIRAL INFECTION” (priority 2009, published 2011).

Data set [1] concerns sub-genomic HCV Con 1 isolate in Luc-ubi-neo/ET Replicon cells. The data set can be described thus: HCV RNA replication in Luc-ubi-neo/ET Replicon cells, combined/sequential PI and IFN. The data set is classed as cell-based. To be noted: initial experiments; IFN 0.5 U/ml, PI 500-1000 nM. As to the method:
Replicon cells are in general Luc-ubi-neo/ET Replicon cells, which are derived from Huh7 cells and which harbor a sub-genomic HCV Con 1 isolate with a luciferase reporter gene. These so-called Replicon cells allow for in vitro screening of antiviral substances by autonomous HCV RNA replication.
(§1) Luc-ubi-neo/ET-cells were seeded and incubated with PI and IFN (Roferon A, Roche) for 24 hours on the following day. […] After a 24 hour combined incubation, the medium was changed and cells were incubated for another 48 hours with PI alone. After these 3 days of incubation, HCV RNA replication was determined with respect to the non-treated control.
A general note: Replicon systems follow genome replication, usually without infectious particles.

For data set [2], the system named is Luc-ubi-neo/ET Replicon cells. As to the kind of experiment: Cytotoxicity in Replicon cells. It is filed as cell-based, human. To be noted: 750 nM PI and 0.5 U/ml IFN. The procedure: as §1
The conditions of data set [3]: 90 μg/week for 3.5 years; prior non response, advanced fibrosis/cirrhosis; cited from earlier work.
The subject of data set [4] is HCV genotype 1. The settings on record: PEG-interferon alpha-2a monotherapy arm, after 14 days; previous relapse; cited from earlier work.

As to “IFN: interferon (Roferon A, Roche) used in the replicon experiments”, the “inhibition of HCV RNA replication” value in data set [1] is “only a low inhibition”. Also, in data set [2], the cytotoxicity entry was “no cytotoxicity is observed”.
In the case of “PEG-interferon alpha-2a: pegylated interferon alpha-2a (40 kD)”, the “rate of primary outcome (progression of liver disease) vs no treatment” value in data set [3] is on record as “no difference between the groups in the rate of any primary outcome”. For the same substance, in data set [4], the “decline of HCV RNA” value is 0.58 log 10.
